Measured values: US4548818A, “Composition and methods for the treatment of chronic obstructive airway disease and cardiac disease using 3-alkylxanthines” (priority 1978, dated 1985)

Tests used:
Guinea-pig trachea = test: Isolated guinea-pig trachea (relaxation of carbacholine-contracted tracheal muscle); conditions: Table II; molar potency ratio from EC50 values (50% maximum response); theophylline = 1 by definition; >1 more potent than theophylline; carbacholine 0.1 μg/ml
Experimental: Guinea-pigs of both sexes, weighing between 150 and 250 g, were killed by a blow on the head and bled. The trachea was removed and cut spirally yielding one or two preparations. The tracheal preparations were mounted in organ baths containing Krebs solution maintained at 37° C. and bubbled with carbogen (95% O2 +5% CO2). Isometric tension reflecting the activity in circular tracheal muscle was recorded by means of a force displacement transducer. Initial tension was set at 0.5 g which was the approximate basal tension kept during the experiment. Evaluation of relaxant effects was done when the preparations had contracted to a stable tension by the addition of carbacholine 0.1 μg/ml to the bath. […] After washing out the drugs the trachea resumed its basal tone and was left to stabilize for at least 15 min. before the next drug evaluation was performed. Between two evaluations of theophylline the effect of the test drug was examined and its EC50 value was compared with the mean of the previous and following EC50 values of theophylline.
The left column lists molar potency ratios for bronchodilatation between theophylline and various xanthine compounds. […]
The guinea-pig trachea were prepared as was discribed previously. Isomeric tension reflecting the activity in circular tracheal muscle was recorded by a force displacement transducer.

Guinea-pig heart = test: Isolated guinea-pig hearts (Langendorff), chronotropic potency; conditions: Table II; positive chronotropic potency; theophylline = 1
Experimental: From the bled guinea-pigs, the hearts were immediately removed and perfused with oxygenated Krebs solution at 37° according to Langendorff. The heart was mounted in a thermostatically controlled organ bath (25 ml) containing Krebs solution. A saline-filled, open-end polyethylene catheter was inserted into the right ventricle through the pulmonary artery. The catheter was fixed to the pulmonary artery by a ligature just above the valvular plane. It was connected to a pressure transducer (P23 AC), making it possible to record changes in intraventricular pressure. From these, the contraction frequency was obtained. Drugs were given as single bolus injections into the perfusion solution.
(§1) The left column lists molar potency ratios for bronchodilatation between theophylline and various xanthine compounds. Toxic symptoms occuring before death in mice receiving constant rate infusion of drug i.v. are accounted for in the middle column. […] The far right column indicates cardiotonic activity as positive chronotropic potency.

[1] = mouse, in vivo, iv
Excerpt: as §1

Cc1nc2c([nH]1)c(=O)[nH]c(=O)n2CC(C)C [D 4169, 3,7-dihydro-8-methyl-3-(2-methylpropyl)-1H-purine-2,6-dione]
Guinea-Pig trachea Potency rations of theophylline (Guinea-pig trachea): 10.3 | Guinea-Pig heart Potency ratios of theophylline, Chronotrop (Guinea-pig heart): 4 | Convulsion test mice i.v., Death [1]: 488.2 ± 8.1 mg/kg i.v.
